The subject of one test is TA*p63α S582/S583A. Nature of the test: BN-PAGE oligomeric state of TA*p63α S582/S583A upon Dox treatment. Format: cell-based. To be noted: transfected U2OS and H1299 cells, 10 µM Dox, 6 h. The source says: (§1) Vinculin was used as loading control.
Another test relates to GTAp63α S582/S583A. In words: BN-PAGE oligomeric state of GTAp63α S582/S583A upon Dox treatment. It counts as cell-based. As to conditions: transfected U2OS and H1299 cells, 10 µM Dox, 6 h.
Text: as §1

Turning to `COc1cccc2c1C(=O)c1c(O)c3c(c(O)c1C2=O)C[C@@](O)(C(=O)CO)C[C@@H]3O[C@H]1C[C@H](N)[C@H](O)[C@H](C)O1` [Dox, doxorubicin], the “activation to tetrameric state, Chk2 priming site mutant S582/S583A of TA*p63α” value with TA*p63α S582/S583A is listed as “S582/583A mutations prevent this activation”. In addition, the “activation to tetrameric state, Chk2 priming site mutant S582/S583A of GTAp63α” value with GTAp63α S582/S583A is listed as “S582/583A mutations prevent this activation”.

Values taken from PMC6746776, “TA*p63 and GTAp63 achieve tighter transcriptional regulation in quality control by converting an inhibitory element into an additional transactivation domain” (Cell Death & Disease, 2019).
